Here are results for two substances from US6420532.

Sequences of proteins named here, by UniProt entry; tags and fusion partners are left off.
UniProt P49146, whole entry: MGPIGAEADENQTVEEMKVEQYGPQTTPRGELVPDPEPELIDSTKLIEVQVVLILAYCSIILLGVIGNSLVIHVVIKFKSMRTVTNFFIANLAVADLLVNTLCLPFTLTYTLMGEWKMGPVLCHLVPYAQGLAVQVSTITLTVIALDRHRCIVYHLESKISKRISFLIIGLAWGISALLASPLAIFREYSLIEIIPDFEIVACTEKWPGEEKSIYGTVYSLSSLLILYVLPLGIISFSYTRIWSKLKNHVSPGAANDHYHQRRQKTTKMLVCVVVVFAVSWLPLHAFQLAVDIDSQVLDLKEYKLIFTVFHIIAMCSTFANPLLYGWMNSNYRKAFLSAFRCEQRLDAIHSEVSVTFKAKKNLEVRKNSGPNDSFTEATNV

For experiment [1], the target named is human hippocampal Y2 receptor (clone CG-13) (human) (UniProt P49146). As to the kind of experiment: 125I-PYY displacement, COS-7 membranes, Ki from IC50.
Experiment [2] has the same target. Briefly: 125I-PYY displacement binding assay (Table 9, binding column).
For experiment [3] the target is unchanged. Briefly: 125I-PYY displacement, COS-7 membranes, Ki from IC50. The source holds these as a separate data set.

Broadly, the Ki is the dissociation constant of the complex between target and ligand, obtained from inhibition or displacement. A low value points to a stronger hold on the target. For the substance PP, salmon (peptide), the Ki in experiment [1] and in experiment [2] was 0.17 nM each time.

Consider “human NPY, P01303 29-64 (peptide; C-terminal amide; other documents disagree on this pair)”, for which the inhibition constant Ki in experiment [1] came to 0.74 nM; in experiment [3] it was 0.69 nM; in experiment [2], 0.74 nM.
